The other results are listed elsewhere or left out. Some salts and complexes are drawn in separate pieces, as the source files them; their charges need not balance. The source made the active and inactive calls.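 How the source made its calls: active means lowest replicate activity score at least 50, where 100 means six control SD above control mean; inconclusive means lowest score under 50 but half or more replicates reach 50; inactive means the rest.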
Assay: perturbers of mRNA poly(A) processing – luminescence, S. cerevisiae, primary screen (AID 1875);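 further: yeast exposed to compound for 9 h at 30 °C; higher score means more reporter readthrough which indicates perturbed polyadenylation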
Details: S. cerevisiae SKY197-pL101 polyadenylation reporter, beta-gal luminescence; at 12 µM; stronger effect = higher value; efflux-impaired pdr1/pdr3 knockout yeast; score 100 = 6 SD above DMSO

Structure (SMILES)	activity score
Cc1ccc(N/C(=N/P(=O)(N2CCOCC2)N2CCOCC2)N2CCOCC2)cc1	inactive: -7.05%
COc1ccccc1OP(=O)(Nc1ccc(C)cn1)Oc1ccccc1OC	inactive: -23.3%
COc1ccc(OP(C)(=O)Nc2ccccn2)cc1 (centres undefined)	inactive: -0.0842%
Cc1ccc(OP(=O)(Nc2nccs2)Oc2ccc(C)cc2)cc1	inactive: 6.54%
CN1CCCC(OC(=O)C(c2ccccc2)c2ccccc2)C1 (centres undefined)	inactive: -24.9%
CN(C)CCOC(=O)C(O)(c1ccccc1)C1CCCC1 (centres undefined)	inactive: -4.57%
Clc1ccc(Cl)c(NC2=NCC(CBr)S2)c1 (centres undefined)	inactive: -1.87%
Nc1cc(N)c2nonc2c1[N+](=O)[O-]	inactive: 11%
Cc1c(NP(C)(=O)Oc2ccc(C(C)C)cc2)c(=O)n(-c2ccccc2)n1C (centres undefined)	inactive: -0.351%
O=[N+]([O-])c1cc([N+](=O)[O-])c(Nc2ccccn2)c([N+](=O)[O-])c1	inactive: -36.4%
CC(C)CC(=O)NC(Sc1ccc(Cl)cc1)C(Cl)(Cl)Cl (centres undefined)	inactive: 2.27%
Oc1ccccc1CNc1ccccn1	inactive: 6.26%
O=C(NC(Sc1ccncn1)C(Cl)(Cl)Cl)c1ccccc1 (centres undefined)	inactive: 8.84%
Cc1c2non([O-])c-2c(C)[n+](=O)[n+]1[O-]	inactive: -17.6%
CP(=O)(Nc1ccccn1)Oc1ccccc1 (centres undefined)	inactive: 4.55%
COc1ccccc1OP(C)(=O)Nc1ccc(C)cc1C (centres undefined)	inactive: -10.3%
CCc1ccc(OP(C)(=O)O)cc1	inactive: 0.113%
O=P1(Nc2nc3ccc(Cl)cc3s2)COc2ccccc2O1 (centres undefined)	inactive: -5.63%
CCOc1ccc(C2=NCC(CBr)S2)cc1 (centres undefined)	inactive: -20%
CP(=O)(Nc1ccccc1F)Oc1ccccc1 (centres undefined)	inactive: 21.4%
CC(C)(C)C(=O)NC(Sc1ccccc1)C(Cl)(Cl)Cl (centres undefined)	inactive: -15.1%
CC(C)c1ccc(OP(C)(=O)Nc2ccc(SC(F)(F)F)cc2)cc1 (centres undefined)	inactive: 3.12%
CC(=O)c1ccc(N2CC2c2ccncc2)cc1 (centres undefined)	inactive: -1.79%

Structure (SMILES)	activity score
O=C(OCCN1CCN(CCOCc2ccccc2)CC1)C(O)(c1ccccc1)c1ccccc1	inactive: -4.33%
C[C@H]1OP(=O)(Oc2ccccc2)C[C@@H]2O[C@@H]21 (some centres undefined)	inactive: 0.59%
C[C@@H]1C=CCP(=O)(Oc2ccccc2)O1 (some centres undefined)	inactive: -1.18%
CC(=O)Nc1ccc([As](=O)(O)O)c(O)c1	inactive: 21.3%
COc1ccc2c(c1O)-c1c(O)c(OC)cc3c1[C@H](C2)[N+](C)(C)CC3.O=[N+]([O-])c1cc([N+](=O)[O-])c([O-])c([N+](=O)[O-])c1[O-]	inactive: -0.925%
CC(=O)Nc1ccc(Oc2c([N+](=O)[O-])cc([N+](=O)[O-])cc2[N+](=O)[O-])cc1	inactive: -4.24%
O=C(NC1CCS(=O)(=O)C1)NP(=S)(Oc1ccccc1)Oc1ccccc1 (centres undefined)	inactive: -9.96%
CCNC(=S)/N=C(\N)N[N+](=O)[O-]	inactive: 8.35%
c1ccc(-c2nn[nH]n2)c(-c2nn[nH]n2)c1	inactive: -7.26%
Cc1ccc(NP(=O)(Oc2cccc(C)c2)Oc2cccc(C)c2)nc1	inactive: -19.5%
CCOC(=O)NC(Sc1ccccc1)C(Cl)(Cl)Cl (centres undefined)	inactive: -22.7%
CCOC(=O)c1ccc(NP(C)(=O)Oc2ccc(F)cc2)cc1 (centres undefined)	inactive: 17.3%
COc1ccc(OP(C)(=O)Nc2ccc(SC(F)(F)F)cc2)cc1 (centres undefined)	inactive: -2.18%
COC(=O)c1cc2c(s1)N=C(c1ccccc1)N(C)P2(=O)N1CCOCC1 (centres undefined)	inactive: 9.59%
CC(=O)NC(SC(=S)N(CC(C)C)CC(C)C)C(Cl)(Cl)Cl (centres undefined)	inactive: -25.1%
Cc1ccc(OP(=O)(Nc2ccccn2)Oc2ccc(C)cc2)cc1	inactive: -67.2%
O=C(OC1CN2CCC1CC2)c1ccccc1 (centres undefined)	inactive: -23.9%
CP(=O)(Nc1ccccc1)Oc1ccc(F)cc1 (centres undefined)	inactive: -0.0114%
Cc1ccccc1OP(=O)(Nc1ccccn1)Oc1ccccc1C	inactive: -5.09%
O=[N+]([O-])c1cc([N+](=O)[O-])c(OC2CCCCC2O)c([N+](=O)[O-])c1 (centres undefined)	inactive: -13.4%
CCCCCOc1ccc(NP(C)(=O)Oc2ccc(Cl)cc2Cl)cc1 (centres undefined)	inactive: -0.975%
CN(C)C(=O)Oc1noc2ccccc12	inactive: 14.5%
COc1ccc(OP(C)(=O)Nc2cccc(Br)c2)cc1 (centres undefined)	inactive: 8.22%

Structure (SMILES)	activity score
CN(C)C1(CNC(=O)c2ccc(Cl)c(S(N)(=O)=O)c2)CCCCC1	inactive: -15.7%
O=P(Nc1ccccn1)(c1ccc(Br)cc1)c1ccc(Br)cc1	inactive: -2.9%
O=P(Nc1nc2ccccc2s1)(c1ccccc1)c1ccccc1	inactive: 11.2%
CN(C)CCOC(=O)C(O)(c1ccccc1)C1CCCCC1 (centres undefined)	inactive: 9.17%
C[C@H]1OP(=O)(Oc2ccccc2)[C@H](O)[C@H](O)[C@H]1N=[N+]=[N-] (some centres undefined)	inactive: 5.54%
COc1ccc(NP(C)(=O)Oc2ccccc2OC)cc1 (centres undefined)	inactive: -8.57%
O=[N+]([O-])c1ccc(OP2(=O)COCCO2)cc1 (centres undefined)	inactive: 1.78%
CC(=O)NC(SC(=S)N(C)C)C(Cl)(Cl)Cl (centres undefined)	inactive: -6.37%
O=[N+]([O-])c1ncn(CCn2cnc([N+](=O)[O-])n2)n1	inactive: -0.593%
O=[N+]([O-])c1ccc(O)c(/C=N/Nc2ccc([N+](=O)[O-])cc2[N+](=O)[O-])c1	inactive: 17.3%
O=[As](O)(c1ccccc1)c1ccc(O)cc1	inactive: 14.6%
Cc1cc(-c2cccc3ccccc23)c(C)cn1.O=[N+]([O-])c1cc([N+](=O)[O-])c(O)c([N+](=O)[O-])c1	inactive: 1.63%
O=[N+]([O-])c1cc([N+](=O)[O-])c(NCC2CCS(=O)(=O)C2)c([N+](=O)[O-])c1 (centres undefined)	inactive: 7.92%
C(Cc1nn[nH]n1)Cc1nn[nH]n1	inactive: 8.65%
Nc1ccc([As](=O)(O)c2ccc([N+](=O)[O-])cc2)cc1	inactive: -14.7%
O=C(OC1CN2CCC1CC2)c1cccc(Cl)c1 (centres undefined)	inactive: 14.4%
CP(=O)(Nc1ccc(SC(F)(F)F)cc1)Oc1ccc(F)cc1 (centres undefined)	inactive: -4.17%
O=P(Nc1nccs1)(c1ccccc1)c1ccccc1	inactive: 16.3%
CC(C)C(=O)NC(Sc1ccccc1)C(Cl)(Cl)Cl (centres undefined)	inactive: -0.428%
CCOP(C)(=S)SCC(=O)NC(C)(CC)C(=O)O (centres undefined)	inactive: 20.6%
c1nnnn1CCn1cnnn1	inactive: 24.1%
CP(=O)(Nc1ccc2c(c1)OCCO2)Oc1ccccc1 (centres undefined)	inactive: -2.39%
Cc1ccccc1NP(C)(=O)Nc1ccccc1C	inactive: -2.78%

— PubChem BioAssay AID1875 (Broad Institute, 2009)
